Assay results: patent US20130059324A1, “SYSTEMS AND METHODS FOR MECHANICALLY STRAINED CELL CULTURE” (THE UNIVERSITY OF KANSAS, priority 2010, published 2013)

System: A549 cells
Assay: Prototype 96-well plate, viable cell count (Vi-Cell) with and without mechanical forces

Q: How did the “Viable Cell Count after 24 hours of drug exposure, With forces (Ef)” value turn out when `COc1cccc2c1C(=O)c1c(O)c3c(c(O)c1C2=O)C[C@@](O)(C(=O)CO)C[C@@H]3O[C@H]1C[C@H](N)[C@H](O)[C@H](C)O1` [Doxorubicin] was run?
A: The value was 11750.0.

Q: What about the “Viable Cell Count after 24 hours of drug exposure, Without forces (E)” value of the same molecule?
A: Its value is 30500.0.
